Inhibition data for 1 molecule are collected here from PubChem BioAssay AID602276 (University of Pittsburgh Molecular Library Screening Center, 2012).

The list shows a part of the results, in another mix than the full data. Some tests of the compounds listed are not included; inactive here does not mean inactive elsewhere. Activity calls are given as the source filed them.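 How the source made its calls: active means inhibition at or above 50% at 10 µM; inactive means inhibition below 50%.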

The assay is described as follows: blockers of RIG-like receptor reporter activation – cell-based, Sendai virus stimulus, luciferase, 10K MLSCN set, TLR/RLR signaling modifier project, primary screen (AID 602276).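 Further: firefly luciferase from ISG56 promoter only with Renilla not read in this screen; 0% = Sendai virus plus DMSO and 100% = medium plus DMSO without virus.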 To be noted: HEK293 RL24 IRF3 luciferase reporter, at 10 µM, active compounds read high.
As for `O=C(OC1CN2CCC1CC2)C(CO)(c1ccccc1)c1ccccc1` (stereo unspecified), the inhibition was inactive: 11.4%.
